Assay results: BindingDB's records for doi:10.1126/science.abf1611 (Sichuan University, 2021)

Biological target: Replicase polyprotein 1ab (Severe acute respiratory syndrome coronavirus 2, UniProt P0DTD1)
Assay: The enzymatic inhibition assay

Question: How did the IC50 turn out when `O=C[C@H](C[C@@H]1CCNC1=O)NC(=O)[C@H]1[C@@H]2CCC[C@H]2CN1C(=O)CCc1cccc(F)c1` [MI-21] was run?
Answer: 7.6 nM

Question: `O=C[C@H](C[C@@H]1CCNC1=O)NC(=O)[C@H]1[C@@H]2CCC[C@H]2CN1C(=O)COc1ccc(Cl)cc1` [MI-28] was tested. Which IC50 did it give?
Answer: 9.2 nM
